{"sequences": {"note": "The chains behind the UniProt entries cited, without tags or fusion partners. Where a name states a change or a piece, a line headed by the entry shows the natural chain unless it says otherwise.", "UniProt P52333": "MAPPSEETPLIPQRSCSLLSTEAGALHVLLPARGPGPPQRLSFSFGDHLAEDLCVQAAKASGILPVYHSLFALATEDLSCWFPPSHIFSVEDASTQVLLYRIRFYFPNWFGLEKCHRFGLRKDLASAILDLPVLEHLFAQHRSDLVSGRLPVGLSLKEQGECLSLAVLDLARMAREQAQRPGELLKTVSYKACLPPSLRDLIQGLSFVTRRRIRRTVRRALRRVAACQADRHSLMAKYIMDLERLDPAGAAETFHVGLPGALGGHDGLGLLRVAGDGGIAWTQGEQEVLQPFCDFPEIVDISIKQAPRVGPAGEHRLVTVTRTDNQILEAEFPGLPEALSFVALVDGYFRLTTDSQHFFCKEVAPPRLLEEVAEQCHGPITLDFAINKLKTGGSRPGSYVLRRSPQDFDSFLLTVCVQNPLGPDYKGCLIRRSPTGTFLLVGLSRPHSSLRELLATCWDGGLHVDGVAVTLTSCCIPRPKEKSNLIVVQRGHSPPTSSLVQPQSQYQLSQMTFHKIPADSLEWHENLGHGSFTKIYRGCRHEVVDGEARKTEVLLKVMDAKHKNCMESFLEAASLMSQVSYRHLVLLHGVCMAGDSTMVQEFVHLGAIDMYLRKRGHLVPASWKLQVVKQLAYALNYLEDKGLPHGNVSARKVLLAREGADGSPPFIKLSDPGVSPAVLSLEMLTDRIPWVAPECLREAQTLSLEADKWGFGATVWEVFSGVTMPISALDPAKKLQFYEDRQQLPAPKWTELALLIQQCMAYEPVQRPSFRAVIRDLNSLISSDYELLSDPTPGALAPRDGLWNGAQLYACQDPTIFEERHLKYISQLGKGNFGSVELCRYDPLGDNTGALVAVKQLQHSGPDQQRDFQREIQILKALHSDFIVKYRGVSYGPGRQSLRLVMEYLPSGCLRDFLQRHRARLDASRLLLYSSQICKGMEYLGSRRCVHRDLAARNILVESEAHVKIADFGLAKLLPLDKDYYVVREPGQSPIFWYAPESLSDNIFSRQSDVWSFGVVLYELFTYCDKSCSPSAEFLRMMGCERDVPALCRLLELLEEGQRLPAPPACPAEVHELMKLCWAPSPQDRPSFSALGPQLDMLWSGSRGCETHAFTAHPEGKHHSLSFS"}, "source": "patent US20230348487A1", "about": "“2-AMINOPYRIMIDINE COMPOUND AND PHARMACEUTICAL COMPOSITION THEREOF AND APPLICATION THEREOF” (GUANGZHOU SALUSTIER BIOSCIENCES CO., LTD., priority 2021, published 2023)", "biological_target": "JAK3 (Homo sapiens (Human), UniProt P52333)", "test": "Z′-Lyte kinase inhibitory activity test", "assay_type": "biochemical", "data": [{"smiles": "C=CC(=O)Nc1cc(Nc2ncc(Cl)c(O[C@@H]3CO[C@H]4[C@@H]3OC[C@H]4OC)n2)ccc1N(C)CCN(C)C", "note": "[LS 6-45]", "values": [{"measurement": "JAK3 kinase inhibitory activity and selectivity (in words)", "value": "strong and selective JAK3 kinase inhibitory activity"}]}]}
